Data: article PMC9270327 (Communications Biology, 2022)

Protein sequences, listed by entry. Tags and fused reporters are not part of them. Residues count along the entry.
UniProt Q9Y5Y6, whole entry: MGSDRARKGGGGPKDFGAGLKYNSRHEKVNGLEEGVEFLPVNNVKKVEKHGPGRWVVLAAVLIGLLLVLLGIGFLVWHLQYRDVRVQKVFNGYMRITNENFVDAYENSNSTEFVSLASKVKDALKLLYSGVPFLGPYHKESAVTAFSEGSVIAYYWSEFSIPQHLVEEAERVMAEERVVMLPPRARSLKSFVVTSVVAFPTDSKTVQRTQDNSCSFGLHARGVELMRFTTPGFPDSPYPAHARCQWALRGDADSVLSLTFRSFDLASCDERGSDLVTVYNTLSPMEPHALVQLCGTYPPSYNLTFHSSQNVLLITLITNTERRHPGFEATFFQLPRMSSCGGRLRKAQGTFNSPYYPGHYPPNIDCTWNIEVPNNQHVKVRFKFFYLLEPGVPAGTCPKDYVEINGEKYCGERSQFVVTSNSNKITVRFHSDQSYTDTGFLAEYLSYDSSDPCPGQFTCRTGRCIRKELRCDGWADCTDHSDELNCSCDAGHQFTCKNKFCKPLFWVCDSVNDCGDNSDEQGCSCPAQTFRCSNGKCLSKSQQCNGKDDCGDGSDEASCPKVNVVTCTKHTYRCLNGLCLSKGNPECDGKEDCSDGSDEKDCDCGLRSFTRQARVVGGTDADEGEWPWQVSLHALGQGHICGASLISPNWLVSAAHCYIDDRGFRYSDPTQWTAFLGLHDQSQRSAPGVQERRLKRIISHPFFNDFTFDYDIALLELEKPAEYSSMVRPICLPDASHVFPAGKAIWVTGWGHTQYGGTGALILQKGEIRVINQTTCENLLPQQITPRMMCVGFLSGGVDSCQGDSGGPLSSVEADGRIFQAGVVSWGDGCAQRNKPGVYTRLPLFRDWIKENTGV
UniProt P00742, 235-488 limits assumed: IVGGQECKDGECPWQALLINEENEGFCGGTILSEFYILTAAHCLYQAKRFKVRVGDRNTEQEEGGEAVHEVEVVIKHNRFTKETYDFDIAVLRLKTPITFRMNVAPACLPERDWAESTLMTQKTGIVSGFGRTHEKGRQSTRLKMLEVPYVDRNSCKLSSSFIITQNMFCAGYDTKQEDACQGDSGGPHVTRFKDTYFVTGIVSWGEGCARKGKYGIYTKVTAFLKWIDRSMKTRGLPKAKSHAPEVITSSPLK
UniProt P00742, 41-179 partner limits assumed: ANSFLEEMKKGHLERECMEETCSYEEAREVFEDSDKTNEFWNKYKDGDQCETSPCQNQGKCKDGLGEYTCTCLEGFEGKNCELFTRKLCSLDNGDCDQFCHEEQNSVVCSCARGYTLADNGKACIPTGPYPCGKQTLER

Legend:
Assay type in all cases: biochemical
[1] = molecular target: recombinant human matriptase (Homo sapiens, UniProt Q9Y5Y6); assay: Enzyme inhibition assay with purified matriptase (Ki, dose-response); conditions: for matriptase activity, Mean (Fig. 2b): normalized, 0 nM = 100
[2] = molecular target: recombinant human thrombin (Homo sapiens, UniProt P00734); assay: Enzyme inhibition assay with purified thrombin (Ki, dose-response); conditions: for thrombin activity, Mean (Fig. 2c): normalized, 0 nM = 100
factor Xa = factor Xa (Homo sapiens, UniProt P00742); assay: Enzyme inhibition assay with purified factor Xa (Ki, dose-response); conditions: compared to TMPRSS2, text

SMILES	thrombin activity, Mean (Fig. 2c) ([2]; 0.02 nM)	thrombin activity, Mean (Fig. 2c) ([2]; 0.04 nM)	thrombin activity, Mean (Fig. 2c) ([2]; 0.2 nM)	thrombin activity, Mean (Fig. 2c) ([2]; 2 nM)	thrombin activity, Mean (Fig. 2c) ([2]; 20 nM)	thrombin activity, Mean (Fig. 2c) ([2]; 200 nM)	thrombin activity, Mean (Fig. 2c) ([2]; 10000 nM)	thrombin activity, Mean (Fig. 2c) ([2]; 100000 nM)	matriptase activity, Mean (Fig. 2b) ([1]; 0.1 nM)	matriptase activity, Mean (Fig. 2b) ([1]; 0.2 nM)	matriptase activity, Mean (Fig. 2b) ([1]; 1 nM)	matriptase activity, Mean (Fig. 2b) ([1]; 10 nM)	matriptase activity, Mean (Fig. 2b) ([1]; 100 nM)	matriptase activity, Mean (Fig. 2b) ([1]; 1000 nM)	matriptase activity, Mean (Fig. 2b) ([1]; 50000 nM)	matriptase activity, Mean (Fig. 2b) ([1]; 500000 nM)	also measured
CC(=O)N[C@@H](CCCNC(=N)N)C(=O)N1CCC[C@H]1C(=O)N[C@@H](CCCNC(=N)N)C(=O)c1nc2ccccc2s1	–	–	–	–	–	–	–	–	–	–	–	–	–	–	–	–	matriptase activity, Mean (control = 100), Figure S11 ([1]; inhibitor 0.1 nM): 104.708; matriptase activity, Mean (control = 100), Figure S11 ([1]; inhibitor 0.2 nM): 103.176; matriptase activity, Mean (control = 100), Figure S11 ([1]; inhibitor 1 nM): 88.2587; matriptase activity, Mean (control = 100), Figure S11 ([1]; inhibitor 10 nM): 56.7782; matriptase activity, Mean (control = 100), Figure S11 ([1]; inhibitor 100 nM): 12.0817; matriptase activity, Mean (control = 100), Figure S11 ([1]; inhibitor 1000 nM): 1.5882; matriptase activity, Mean (control = 100), Figure S11 ([1]; inhibitor 50000 nM): -0.3971; matriptase activity, Mean (control = 100), Figure S11 ([1]; inhibitor 500000 nM): -0.1134
CC(=O)N[C@H](CCCNC(=N)N)C(=O)N1CCCC[C@H]1C(=O)NC(CCCNC(=N)N)C(=O)c1nc2ccccc2s1 (some centres unmarked)	101.993	99.4488	96.7343	101.951	105.089	103.053	77.608	30.3647	110.25	110.626	113.164	102.175	60.7586	13.1781	0.3068	0.01395	–
CC(=O)N[C@@H](CCCNC(=N)N)C(=O)N1CCC[C@H]1C(=O)N[C@H](CCCNC(=N)N)C(=O)c1nc2ccccc2s1	–	–	–	–	–	–	–	–	–	–	–	–	–	–	–	–	matriptase activity, Mean (control = 100), Figure S11 ([1]; inhibitor 0.1 nM): 102.57; matriptase activity, Mean (control = 100), Figure S11 ([1]; inhibitor 0.2 nM): 85.4556; matriptase activity, Mean (control = 100), Figure S11 ([1]; inhibitor 1 nM): 64.0187; matriptase activity, Mean (control = 100), Figure S11 ([1]; inhibitor 10 nM): 14.7196; matriptase activity, Mean (control = 100), Figure S11 ([1]; inhibitor 100 nM): 1.519; matriptase activity, Mean (control = 100), Figure S11 ([1]; inhibitor 1000 nM): 0.2921; matriptase activity, Mean (control = 100), Figure S11 ([1]; inhibitor 50000 nM): -0.1752; matriptase activity, Mean (control = 100), Figure S11 ([1]; inhibitor 500000 nM): -0.5257
CC(=O)N[C@@H](CC(N)=O)C(=O)N1CCC[C@H]1C(=O)NC(CCCNC(=N)N)C(=O)c1nc2ccccc2s1 (some centres unmarked)	97.0434	97.9595	102.416	105.79	96.9601	88.1717	20.4501	5.914	110.803	103.176	89.5302	51.3051	11.3254	1.117	0.058	-0.1015	–
CC(=O)N[C@H](Cc1c[nH]cn1)C(=O)N1CCC[C@H]1C(=O)NC(CCCNC(=N)N)C(=O)c1nc2ccccc2s1 (some centres unmarked)	107.86	109.144	106.042	109.679	121.123	105.454	42.941	9.144	79.9698	86.251	91.6482	75.3635	25.7881	2.768	0.0349	-0.09306	–
CC(=O)N[C@@H](Cc1c[nH]cn1)C(=O)N1CCC[C@H]1C(=O)NC(CCCNC(=N)N)C(=O)c1nc2ccccc2s1 (some centres unmarked)	99.0488	96.801	102.681	101.103	101.038	103.977	56.5933	16.9477	111.943	106.581	108.32	75.631	13.2955	–	0.06038	-0.2174	matriptase activity, Mean (Fig. 2b) ([1]; 0.05 nM): 110.735
CC(=O)N[C@H](CCCNC(=N)N)C(=O)N1CCC[C@H]1C(=O)NC(CCCNC(=N)N)C(=O)c1nc2ccccc2s1 (some centres unmarked)	108.177	90.3758	91.5495	90.6497	91.8623	94.0138	33.2944	7.199	104.067	94.2915	70.9523	30.0834	5.431	0.6062	0.01263	-0.1263	selectivity over factor Xa (factor Xa): no selectivity
CC(=O)N[C@H](CCCNC(=N)N)C(=O)N[C@@H](CC1CCC1)C(=O)NC(CCCNC(=N)N)C(=O)c1nc2ccccc2s1 (some centres unmarked)	101.418	100.895	100.933	102.798	103.806	101.978	94.4401	57.3881	–	115.188	112.911	90.0765	34.8746	8.412	0.08892	-0.1245	thrombin activity, Mean (control = 100), S6b ([2]; inhibitor 0.02 nM): 101.418; thrombin activity, Mean (control = 100), S6b ([2]; inhibitor 0.04 nM): 100.895; thrombin activity, Mean (control = 100), S6b ([2]; inhibitor 0.2 nM): 100.933; thrombin activity, Mean (control = 100), S6b ([2]; inhibitor 2 nM): 102.798; thrombin activity, Mean (control = 100), S6b ([2]; inhibitor 20 nM): 103.806; thrombin activity, Mean (control = 100), S6b ([2]; inhibitor 200 nM): 101.978; thrombin activity, Mean (control = 100), S6b ([2]; inhibitor 10000 nM): 94.4401; thrombin activity, Mean (control = 100), S6b ([2]; inhibitor 100000 nM): 57.3881; matriptase activity, Mean (control = 100), S6a ([1]; inhibitor 0.2 nM): 115.188; matriptase activity, Mean (control = 100), S6a ([1]; inhibitor 1 nM): 112.911; matriptase activity, Mean (control = 100), S6a ([1]; inhibitor 10 nM): 90.0765; matriptase activity, Mean (control = 100), S6a ([1]; inhibitor 100 nM): 34.8746; matriptase activity, Mean (control = 100), S6a ([1]; inhibitor 1000 nM): 8.412; matriptase activity, Mean (control = 100), S6a ([1]; inhibitor 50000 nM): 0.08892; matriptase activity, Mean (control = 100), S6a ([1]; inhibitor 500000 nM): -0.1245
CC(=O)N[C@H](CCCNC(=N)N)C(=O)N[C@H](C(=O)NC(CCCNC(=N)N)C(=O)c1nc2ccccc2s1)[C@@H](C)O (some centres unmarked)	99.1942	100.169	100.466	99.5334	98.8973	94.9109	98.4309	85.4962	99.148	107.444	106.788	103.897	76.9972	23.9106	0.6006	-0.06983	–
